The source of these data is patent US11091472B2, “PI-kinase inhibitors with anti-infective activity” (The Board of Trustees of the Leland Stanford Junior …, priority 2016, dated 2021).

The test system of one test is HRV. Description: Rhinovirus antiviral assay. Format: cell-based. The settings on record: Human rhinovirus sp., read-out: HRV EC50.
Another test concerns HCV2a. In words: microbe, parasite or virus in culture. Format: cell-based, HCV. The settings on record: Hepatitis C virus, Huh7.5, read-out: HCV2a EC50. From the text:
Tables 4-6 show the results of testing selected compounds for anti-viral (EC50) activity in various assays, such as a HCV genotype 2a in Huh7.5 cells by luciferase reporter assay, for cell toxicity (CC50) and metabolic halflife (t½), according to the methods described above.

Structures are written as SMILES. Bounds are passed on as bounds.

As for `COc1ccc(-c2sc(NCC3CCCCC3)nc2C)cc1S(=O)(=O)Nc1ccccc1F` [Compound S-29], the EC50 with HRV is below 1 nM.

Consider `COc1ccc(-c2sc(NC(=O)[C@@H](C)C3CCCCC3)nc2C)cc1S(=O)(=O)Nc1ccc(O)cc1` [Compound S-138], for which the EC50 with HCV2a was 100 to 1000 nM; in the test on HRV, below 1 nM.

For `COc1ccc(-c2sc(NC(=O)CC3CCOCC3)nc2C)cc1S(=O)(=O)Nc1ccccc1C` [Compound S-228], the EC50 in the test on HCV2a was 100 to 1000 nM; in the test with HRV it was below 1 nM.

The term EC50 denotes the concentration that produces a half-maximal response.
